The results in this text go back to ChEMBL document CHEMBL1128401, “Structure-activity relationships in the 8-amino-6,7,8,9-tetrahydro-3H-benz[e]indole ring system. 1. Effects of substituents in the aromatic system on serotonin and dopamine receptor subtypes” (J Med Chem, 1995).

Amino acid sequences for entries named in this document (tags omitted).
UniProt P19020, whole entry: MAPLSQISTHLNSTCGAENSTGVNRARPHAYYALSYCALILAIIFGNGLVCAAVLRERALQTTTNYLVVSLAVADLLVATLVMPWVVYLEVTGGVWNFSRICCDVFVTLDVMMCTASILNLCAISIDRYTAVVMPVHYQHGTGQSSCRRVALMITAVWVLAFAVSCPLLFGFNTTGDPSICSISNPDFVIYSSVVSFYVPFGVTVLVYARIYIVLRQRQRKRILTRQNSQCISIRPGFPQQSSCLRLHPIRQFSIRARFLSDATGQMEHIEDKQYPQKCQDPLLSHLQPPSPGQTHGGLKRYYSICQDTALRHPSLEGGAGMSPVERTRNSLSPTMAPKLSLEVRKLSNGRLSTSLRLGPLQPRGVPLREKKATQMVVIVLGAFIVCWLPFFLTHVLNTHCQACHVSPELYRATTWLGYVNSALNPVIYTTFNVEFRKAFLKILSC

In general, Ki refers to the dissociation constant of the complex between target and ligand, obtained from inhibition or displacement. High values mean lower affinity, low ones higher affinity.

This test deals with D(3) dopamine receptor (Rattus norvegicus, UniProt P19020). Briefly: Binding affinity against Dopamine receptor D3 from CHO-K1 cells, using [3H]spiperone as the radioligand. It counts as cell-based.

Take `CCCN(CCC)C1CCc2cc(F)c3[nH]ccc3c2C1` (stereo not drawn): the Ki turned out to be 1.6 nM. To `CCCN(CCC)[C@H]1CCc2cc(F)c3[nH]ccc3c2C1` belongs 4.1 nM; to `CCCN(CCC)[C@@H]1CCc2cc(F)c3[nH]ccc3c2C1`, 14 nM.
